Only a part is listed here, and it is no random draw. Results filed as inconclusive are left out. The source made the active and inactive calls. How the source made its calls: active means hit-call score of the fitted dose curve at least 0.9, where 1 is the maximum; inconclusive means response in the unintended direction; inactive means score below 0.9.
Columns and labels:
[1] = molecular target: Estrogen receptor (Homo sapiens) (UniProt P03372); assay: OT_ER_ERaERa_1440: Odyssey Thera (OT) 24-hour HEK293T Protein-Complementation Assay for Estrogen Receptor-alpha/-alpha Homodimer (AID 2283349);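 further: hits raise fluorescence above DMSO for agonists and antagonists alike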
Summary of the method: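 Stably transfected HEK293T; ERα LBD homodimer PCA. 24 h dosing, fluorescence intensity read, gain-of-signal vs DMSO.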

Chains of the proteins cited; added tags and fusions are not shown.
UniProt P03372, whole entry: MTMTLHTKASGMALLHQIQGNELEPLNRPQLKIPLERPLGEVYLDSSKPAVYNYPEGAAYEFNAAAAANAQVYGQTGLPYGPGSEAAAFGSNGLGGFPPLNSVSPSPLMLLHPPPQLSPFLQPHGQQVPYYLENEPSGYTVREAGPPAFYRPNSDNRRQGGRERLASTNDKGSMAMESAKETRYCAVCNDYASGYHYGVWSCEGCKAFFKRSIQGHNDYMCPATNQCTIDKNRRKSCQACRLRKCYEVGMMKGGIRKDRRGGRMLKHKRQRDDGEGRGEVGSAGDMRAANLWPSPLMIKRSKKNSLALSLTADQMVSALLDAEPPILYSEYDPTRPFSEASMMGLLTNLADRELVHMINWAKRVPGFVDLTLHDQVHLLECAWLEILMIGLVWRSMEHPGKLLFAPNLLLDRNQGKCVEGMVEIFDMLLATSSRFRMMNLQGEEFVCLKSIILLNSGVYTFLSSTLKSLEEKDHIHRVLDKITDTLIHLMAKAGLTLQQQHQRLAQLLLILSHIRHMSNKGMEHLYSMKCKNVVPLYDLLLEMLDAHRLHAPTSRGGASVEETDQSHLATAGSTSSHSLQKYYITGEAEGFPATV
UniProt Q92731, whole entry, looked up: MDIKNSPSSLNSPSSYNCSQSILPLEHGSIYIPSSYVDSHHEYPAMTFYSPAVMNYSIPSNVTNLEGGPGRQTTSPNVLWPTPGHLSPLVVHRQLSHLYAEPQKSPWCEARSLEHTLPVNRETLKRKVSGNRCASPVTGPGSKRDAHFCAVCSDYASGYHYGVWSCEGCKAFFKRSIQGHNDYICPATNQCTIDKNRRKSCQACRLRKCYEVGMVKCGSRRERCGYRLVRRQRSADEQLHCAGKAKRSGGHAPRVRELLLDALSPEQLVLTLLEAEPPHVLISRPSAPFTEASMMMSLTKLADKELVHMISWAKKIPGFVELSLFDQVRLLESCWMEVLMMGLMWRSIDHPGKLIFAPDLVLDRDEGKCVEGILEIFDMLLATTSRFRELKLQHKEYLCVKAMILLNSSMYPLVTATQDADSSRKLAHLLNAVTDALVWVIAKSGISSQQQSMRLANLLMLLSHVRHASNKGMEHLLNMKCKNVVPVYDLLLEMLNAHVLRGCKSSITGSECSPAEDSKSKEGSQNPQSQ
UniProt P49884, whole entry: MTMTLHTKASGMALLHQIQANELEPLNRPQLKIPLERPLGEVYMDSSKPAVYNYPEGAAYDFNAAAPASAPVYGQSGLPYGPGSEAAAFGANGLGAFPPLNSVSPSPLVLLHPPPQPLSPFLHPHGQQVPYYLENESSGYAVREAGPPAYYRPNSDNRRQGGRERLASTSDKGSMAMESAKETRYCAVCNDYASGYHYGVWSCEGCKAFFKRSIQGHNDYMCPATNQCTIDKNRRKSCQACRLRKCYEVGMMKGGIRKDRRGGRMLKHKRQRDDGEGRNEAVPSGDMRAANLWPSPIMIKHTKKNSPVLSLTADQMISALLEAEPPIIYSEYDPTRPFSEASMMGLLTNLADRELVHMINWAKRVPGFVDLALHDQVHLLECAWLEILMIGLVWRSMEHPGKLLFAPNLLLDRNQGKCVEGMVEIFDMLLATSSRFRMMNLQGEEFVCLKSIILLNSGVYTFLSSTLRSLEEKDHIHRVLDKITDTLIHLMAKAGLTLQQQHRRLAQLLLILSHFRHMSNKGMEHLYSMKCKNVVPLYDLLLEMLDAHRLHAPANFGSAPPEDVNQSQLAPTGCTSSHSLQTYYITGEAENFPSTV
UniProt P10275, whole entry: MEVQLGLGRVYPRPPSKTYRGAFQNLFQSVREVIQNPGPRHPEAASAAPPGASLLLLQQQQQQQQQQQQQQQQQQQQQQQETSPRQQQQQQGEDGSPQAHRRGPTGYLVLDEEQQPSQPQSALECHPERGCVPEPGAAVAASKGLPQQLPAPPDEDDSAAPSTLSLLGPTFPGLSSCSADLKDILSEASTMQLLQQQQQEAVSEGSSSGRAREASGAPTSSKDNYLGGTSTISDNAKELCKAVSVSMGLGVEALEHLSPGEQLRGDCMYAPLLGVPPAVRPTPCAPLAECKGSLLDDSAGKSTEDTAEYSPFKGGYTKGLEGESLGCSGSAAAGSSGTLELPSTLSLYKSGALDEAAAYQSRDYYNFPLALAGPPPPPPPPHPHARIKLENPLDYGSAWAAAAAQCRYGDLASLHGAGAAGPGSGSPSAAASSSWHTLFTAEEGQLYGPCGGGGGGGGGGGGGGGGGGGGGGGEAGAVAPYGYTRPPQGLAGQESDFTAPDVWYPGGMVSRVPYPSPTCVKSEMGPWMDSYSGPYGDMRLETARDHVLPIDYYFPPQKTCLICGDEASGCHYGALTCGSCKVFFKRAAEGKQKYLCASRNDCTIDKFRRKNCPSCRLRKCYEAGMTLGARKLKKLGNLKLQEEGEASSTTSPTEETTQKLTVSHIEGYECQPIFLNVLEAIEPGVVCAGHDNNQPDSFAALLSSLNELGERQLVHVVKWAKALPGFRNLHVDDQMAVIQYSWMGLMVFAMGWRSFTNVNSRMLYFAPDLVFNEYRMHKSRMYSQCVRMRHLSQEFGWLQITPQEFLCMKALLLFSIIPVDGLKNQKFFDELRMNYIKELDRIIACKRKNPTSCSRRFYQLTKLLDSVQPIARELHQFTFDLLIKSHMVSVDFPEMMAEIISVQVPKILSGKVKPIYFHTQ
UniProt O97775, whole entry: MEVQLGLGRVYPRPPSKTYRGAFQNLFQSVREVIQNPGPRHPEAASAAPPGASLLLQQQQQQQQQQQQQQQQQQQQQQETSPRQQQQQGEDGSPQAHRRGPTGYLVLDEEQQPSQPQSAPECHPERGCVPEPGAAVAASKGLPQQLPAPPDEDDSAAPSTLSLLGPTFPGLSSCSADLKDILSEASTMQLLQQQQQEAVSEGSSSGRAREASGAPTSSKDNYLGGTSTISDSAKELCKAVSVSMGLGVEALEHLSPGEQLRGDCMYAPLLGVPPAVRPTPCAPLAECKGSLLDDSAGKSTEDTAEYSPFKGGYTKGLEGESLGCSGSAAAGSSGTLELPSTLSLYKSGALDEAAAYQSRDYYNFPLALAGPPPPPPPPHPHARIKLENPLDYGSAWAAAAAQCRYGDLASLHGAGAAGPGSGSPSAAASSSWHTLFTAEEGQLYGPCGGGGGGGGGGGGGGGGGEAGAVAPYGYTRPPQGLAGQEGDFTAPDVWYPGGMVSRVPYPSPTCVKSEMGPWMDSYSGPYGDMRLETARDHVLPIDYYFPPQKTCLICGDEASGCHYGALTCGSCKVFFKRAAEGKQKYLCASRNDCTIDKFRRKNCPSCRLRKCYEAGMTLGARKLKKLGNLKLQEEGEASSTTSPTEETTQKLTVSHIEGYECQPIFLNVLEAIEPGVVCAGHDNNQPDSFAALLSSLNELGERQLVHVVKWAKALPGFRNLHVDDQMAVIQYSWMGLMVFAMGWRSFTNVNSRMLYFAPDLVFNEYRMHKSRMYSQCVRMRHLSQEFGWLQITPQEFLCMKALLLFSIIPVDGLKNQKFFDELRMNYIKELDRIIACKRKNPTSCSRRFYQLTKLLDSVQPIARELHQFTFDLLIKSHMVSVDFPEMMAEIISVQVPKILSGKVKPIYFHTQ
UniProt P08219, whole entry: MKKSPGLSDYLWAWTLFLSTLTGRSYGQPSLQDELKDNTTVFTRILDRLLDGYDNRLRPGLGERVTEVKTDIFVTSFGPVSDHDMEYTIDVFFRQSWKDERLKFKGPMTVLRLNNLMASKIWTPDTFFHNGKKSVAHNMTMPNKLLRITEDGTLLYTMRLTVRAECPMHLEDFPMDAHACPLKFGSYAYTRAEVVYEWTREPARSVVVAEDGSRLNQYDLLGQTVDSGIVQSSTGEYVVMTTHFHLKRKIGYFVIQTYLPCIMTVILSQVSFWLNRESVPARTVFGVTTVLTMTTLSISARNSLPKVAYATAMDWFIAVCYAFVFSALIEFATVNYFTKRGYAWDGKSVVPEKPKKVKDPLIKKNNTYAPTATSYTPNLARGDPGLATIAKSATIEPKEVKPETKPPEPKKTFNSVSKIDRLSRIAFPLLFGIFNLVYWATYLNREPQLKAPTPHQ

[2] = molecular target: Estrogen receptor (Homo sapiens) (UniProt P03372); assay: OT_ER_ERaERa_0480: Odyssey Thera (OT) 8-hour HEK293T Protein-Complementation Assay for Estrogen Receptor-alpha/-alpha Homodimer (AID 2283351);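 further: rise in fluorescence from reassembled reporter fragments on ERα LBD homodimer in nucleus or whole cell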
Summary of the method: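 HEK293T cells stably expressing a PCA pair of ER alpha LBD (residues 310-547) were dosed for 8 hours. The gain in fluorescence intensity, nuclear for agonists and whole-cell for antagonists, was measured by laser scanning cytometry against DMSO vehicle.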

[3] = molecular target: T1, Estrogen receptor (Homo sapiens) + Estrogen receptor beta (Homo sapiens) (UniProt P03372+Q92731); assay: OT_ER_ERaERb_0480: Odyssey Thera (OT) 8-hour HEK293T Protein-Complementation Assay for Estrogen Receptor-alpha/-beta Heterodimer (AID 2283352)
Summary of the method: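 HEK293T cells expressing ER-alpha/ER-beta LBD fusions to complementary reporter fragments were dosed with compound for 8 hours. Heterodimer formation was read as increased nuclear (agonist) or nuclear plus cytoplasmic (antagonist) mean fluorescence intensity versus DMSO vehicle.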

[4] = molecular target: T1, Estrogen receptor (Homo sapiens) + Estrogen receptor beta (Homo sapiens); assay: OT_ER_ERaERb_1440: Odyssey Thera (OT) 24-hour HEK293T Protein-Complementation Assay for Estrogen Receptor-alpha/-beta Homodimer (AID 2283356);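 further: heteromer of ER alpha and ER beta binding domains; hits raise reporter fluorescence and both agonists and antagonists give an increase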
Summary of the method: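 HEK293T cells stably expressing a PCA pair of ERα LBD (aa 310-547) and ERβ LBD (aa 263-489) were dosed for 24 h. Fluorescence intensity increase versus DMSO vehicle was fitted as gain-of-signal.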

[5] = molecular target: bovine Estrogen Receptor (ER), ESR1 (gene 407238) (UniProt P49884); assay: NVS_NR_bER: NovaScreen (NVS) Nuclear Receptor Binding Assay for bovine Estrogen Receptor (ER) (AID 2283345);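 further: actives lower the bound radioligand count which means they displace the ER ligand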
Summary of the method: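 Cell-free radioligand binding with receptor from bovine uterine membranes, read by scintillation counting 18 h after dosing. Loss of specific binding was scored against DMSO; primary screen at 25 uM in duplicate, actives then run as concentration series.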

[6] = molecular target: Estrogen receptor (Homo sapiens) (UniProt P03372); assay: NVS_NR_hER: NovaScreen (NVS) Nuclear Receptor Binding Assay for human Estrogen Receptor (ER) (AID 2283348)
Summary of the method: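 Radiodetection of ligand displacement in a lysate-based, cell-free format using MCF7 extracts, read at 18 hours. Duplicate 25 uM primary testing, then concentration series for actives.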

[7] = molecular target: Androgen Receptor/SRC-1 Co-activator, AR (gene 367) (UniProt P10275); assay: OT_AR_ARSRC1_0960: Odyssey Thera (OT) 16-hour HEK293T Protein-Complementation Assay for Androgen Receptor/SRC-1 Co-activator (AID 2283353);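 further: actives raise the signal above DMSO so potency reflects increased AR and SRC-1 complex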
Summary of the method: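 Endpoint is gain-of-signal N/C fluorescence ratio in the 488 nm channel versus DMSO, from at least 400 cells per image, measured 16 h post-dosing. Cells: HEK293T stably carrying split-Venus AR/SRC-1 complementation constructs.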

[8] = molecular target: chimpanzee Androgen Receptor (AR), AR (gene 747460) (UniProt O97775); assay: NVS_NR_cAR: NovaScreen (NVS) Nuclear Receptor Binding Assay for chimpanzee Androgen Receptor (AR) (AID 2283346);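 further: radioligand displacement from AR measured by scintillation counting in a cell-free assay; a loss of bound radioligand signal versus DMSO counts as binding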
Procedure: NVS_NR_cAR is a biochemical, single-readout assay that uses extracted gene-proteins from Sf9/Sf21 in a cell-free assay. Measurements were taken 72 hours after chemical dosing in a 96-well plate.NVS_NR_cAR is one of one assay component(s) measured or calculated from the NVS_NR_cAR assay. It is designed to make measurements of radioligand binding, a form of binding reporter, as detected with scintillation counting signals by Lysate-based radiodetection technology.Data from the assay component NVS_NR_cAR was analyzed into 1 assay endpoint. This assay endpoint, NVS_NR_cAR, was analyzed in the positive analysis fitting direction relative to DMSO as the negative control and baseline of activity. […] Furthermore, this assay endpoint can be referred to as a primary readout, because the performed assay has only produced 1 assay endpoint. […]
Binding assays used specific radioligands (tritiated, iodinated) with non-radioactive competitive displacement ligands in agonist or antagonist protocols (as indicated) and various reference compounds and inhibitors to titrate specific binding to receptors and transporters. Most enzyme assays (CYPs, kinases, phosphatases, proteases, HDACs) used recombinant protein and specific substrates (fluorescence mostly, some colorimetric and radioactive) and inhibitors, followed by a biochemical separation of substrate and product. […]

[9] = molecular target: Androgen Receptor/SRC-1 Co-activator, AR (gene 367) (UniProt P10275); assay: OT_AR_ARSRC1_0480: Odyssey Thera (OT) 8-hour HEK293T Protein-Complementation Assay for Androgen Receptor/SRC-1 Co-activator (AID 2283354);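 further: hits raise the complementation signal above DMSO so AC50 marks enhancers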
Summary of the method: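 After 8 h dosing, stably expressing HEK293T cells with split-Venus AR/SRC-1 fusions were imaged (488, 635nm). The 488nm N/C ratio per image gave the endpoint, analysed in the positive direction against DMSO.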

[10] = molecular target: bovine Gamma-Aminobutyric Acid Type A Receptor Agonist (GABAR Agonist), GABRA1 (gene 780973) (UniProt P08219); assay: NVS_LGIC_bGABAR_Agonist: NovaScreen (NVS) Ligand-Gated Ion Channel Assay for bovine Gamma-Aminobutyric Acid Type A Receptor Agonist (GABAR Agonist) (AID 2283338)
Summary of the method: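 Radioligand binding to bovine cerebellar membranes in agonist format, read by filter-based scintillation counting after 1 h. Primary screen in duplicate at 25 uM, with actives followed in concentration series. Gain of signal versus DMSO.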

Measured: AC50

COP(C)(=O)OC
inactive: [1] | [2] | [3] | [4]

O=[N+]([O-])OCC(CO[N+](=O)[O-])(CO[N+](=O)[O-])CO[N+](=O)[O-]
not listed: [8] | [9] | [10]
inactive: all other assays above

Cc1cccc([N+](=O)[O-])c1[N+](=O)[O-]
inactive: [7] | [9]
active: [8] 11.6 µM

CC(C)OP(C)(=O)OC(C)C
inactive: [10] | [1] | [2] | [3] | [4]

O=[N+]([O-])c1cccc([N+](=O)[O-])c1
inactive: [1] | [2] | [3] | [4]

Cc1c([N+](=O)[O-])cccc1[N+](=O)[O-]
inactive: [8]

From PubChem BioAssay (EPA / NIEHS)
